# Data taken from article doi:10.1101/2021.07.15.452465.
# How the values were obtained:
# Assay in all cases: SPR
# Settings in all cases: domain or fragment
# [1] = target: A. nidulans CCAAT-binding complex, conserved core domains of HapB, HapC and HapE (HapB^231-293, HapC^42-132, HapE^47-164) (Aspergillus nidulans)
# [2] = target: A. nidulans CCAAT-binding complex, conserved core domains of HapB, HapC and HapE (HapB^231-293, HapC^42-132, HapE^47-164) (Aspergillus nidulans); remark: listed apart in the source
# [3] = target: A. nidulans CCAAT-binding complex, conserved core domains of HapB, HapC and HapE (HapB^231-293, HapC^42-132, HapE^47-164) (Aspergillus nidulans); remark: listed apart in the source
# [4] = target: A. nidulans CCAAT-binding complex, conserved core domains of HapB, HapC and HapE (HapB^231-293, HapC^42-132, HapE^47-164) (Aspergillus nidulans); remark: listed apart in the source
Substance,Kd [1] [nM],Kd [2] [nM],Kd [3] [nM],Kd [4] [nM]
A. nidulans HapX^36-141,16.8,2.26,–,–
A. nidulans HapX^36-133,60.3,–,23.1,–
A. nidulans HapX^27-141,18.9,–,–,3.08
